Assays:
[1] = target: JNK3 (Homo sapiens, UniProt P53779); assay: biochemical; settings: read-out: Percent Control
[2] = target: TYRO3 (Homo sapiens, UniProt Q06418); assay: biochemical; settings: read-out: Percent Control
[3] = target: SIK2 (Homo sapiens, UniProt Q9H0K1); assay: biochemical; settings: read-out: Percent Control
[4] = target: MAP4K5 (Homo sapiens, UniProt Q9Y4K4); assay: biochemical; settings: read-out: Percent Control
[5] = target: LTK (Homo sapiens, UniProt P29376); assay: biochemical; settings: read-out: Percent Control
[6] = target: SRPK1 (Homo sapiens, UniProt Q96SB4); assay: biochemical; settings: read-out: Percent Control
[7] = target: IKK-alpha (Homo sapiens, UniProt O15111); assay: biochemical; settings: read-out: Percent Control
[8] = tested on: 403 non-mutant kinases; settings: of 403 non-mutant kinases, 1000 nM
[9] = target: SRMS (Homo sapiens, UniProt Q9H3Y6); assay: biochemical; settings: read-out: Percent Control
[10] = target: IRAK3 (Homo sapiens, UniProt Q9Y616); assay: biochemical; settings: read-out: Percent Control
[11] = target: GCN2(Kin.Dom.2,S808G) (Homo sapiens, UniProt Q9P2K8, S808G); assay: biochemical; settings: read-out: Percent Control
[12] = target: BMPR1B (Homo sapiens, UniProt O00238); assay: biochemical; settings: read-out: Percent Control
[13] = target: ZAP70 (Homo sapiens, UniProt P43403); assay: biochemical; settings: read-out: Percent Control
[14] = target: TYK2(JH1domain-catalytic) (Homo sapiens, UniProt P29597); assay: biochemical; settings: read-out: Percent Control
[15] = target: WNK4 (Homo sapiens, UniProt Q96J92); assay: biochemical; settings: read-out: Percent Control
[16] = target: LRRK2 (Homo sapiens, UniProt Q5S007); assay: biochemical; settings: read-out: Percent Control
[17] = target: MAST1 (Homo sapiens, UniProt Q9Y2H9); assay: biochemical; settings: read-out: Percent Control
[18] = tested on: FLT3(ITD)
[19] = target: EGFR(T790M) (Homo sapiens, UniProt P00533, T790M); assay: biochemical; settings: read-out: Percent Control
[20] = target: STK39 (Homo sapiens, UniProt Q9UEW8); assay: biochemical; settings: read-out: Percent Control
[21] = target: PLK1 (Homo sapiens, UniProt P53350); assay: biochemical; settings: read-out: Percent Control
[22] = target: ROCK1 (Homo sapiens, UniProt Q13464); assay: biochemical; settings: read-out: Percent Control
[23] = target: SGK (Homo sapiens, UniProt O00141); assay: biochemical; settings: read-out: Percent Control
[24] = target: TLK2 (Homo sapiens, UniProt Q86UE8); assay: biochemical; settings: read-out: Percent Control
[25] = target: MST4 (Homo sapiens, UniProt Q9P289); assay: biochemical; settings: read-out: Percent Control
[26] = target: MERTK (Homo sapiens, UniProt Q12866); assay: biochemical; settings: read-out: Percent Control
[27] = target: NEK10 (Homo sapiens, UniProt Q6ZWH5); assay: biochemical; settings: read-out: Percent Control
[28] = target: FGFR3(G697C) (Homo sapiens, UniProt P22607, G697C); assay: biochemical; settings: read-out: Percent Control
[29] = target: EGFR(E746-A750del) (Homo sapiens, UniProt P00533, DEL746-750); assay: biochemical; settings: read-out: Percent Control
[30] = target: EGFR(G719C) (Homo sapiens, UniProt P00533, G719C); assay: biochemical; settings: read-out: Percent Control
[31] = target: PIK3CA(E545A) (Homo sapiens, UniProt P42336, E545A); assay: biochemical; settings: read-out: Percent Control
[32] = target: TSSK3 (Homo sapiens, UniProt Q96PN8); assay: biochemical; settings: read-out: Percent Control
[33] = target: MLK2 (Homo sapiens, UniProt Q02779); assay: biochemical; settings: read-out: Percent Control
[34] = target: DAPK2 (Homo sapiens, UniProt Q9UIK4); assay: biochemical; settings: read-out: Percent Control
[35] = target: NEK2 (Homo sapiens, UniProt P51955); assay: biochemical; settings: read-out: Percent Control
[36] = target: ADCK4 (Homo sapiens, UniProt Q96D53); assay: biochemical; settings: read-out: Percent Control
[37] = target: RSK1(Kin.Dom.1-N-terminal) (Homo sapiens, UniProt Q15418); assay: biochemical; settings: read-out: Percent Control
[38] = target: PIKFYVE (Homo sapiens, UniProt Q9Y2I7); assay: biochemical; settings: read-out: Percent Control
[39] = target: PIK3CA(E545K) (Homo sapiens, UniProt P42336, E545K); assay: biochemical; settings: read-out: Percent Control
[40] = target: CDC2L1 (Homo sapiens, UniProt P21127); assay: biochemical; settings: read-out: Percent Control
[41] = target: PKN2 (Homo sapiens, UniProt Q16513); assay: biochemical; settings: read-out: Percent Control
[42] = target: DAPK1 (Homo sapiens, UniProt P53355); assay: biochemical; settings: read-out: Percent Control

Sequences of proteins named here, by UniProt entry; tags and fusion partners are left off. A change or cut given only in a name is not applied to a line headed by its entry.
UniProt Q96SB4, whole entry: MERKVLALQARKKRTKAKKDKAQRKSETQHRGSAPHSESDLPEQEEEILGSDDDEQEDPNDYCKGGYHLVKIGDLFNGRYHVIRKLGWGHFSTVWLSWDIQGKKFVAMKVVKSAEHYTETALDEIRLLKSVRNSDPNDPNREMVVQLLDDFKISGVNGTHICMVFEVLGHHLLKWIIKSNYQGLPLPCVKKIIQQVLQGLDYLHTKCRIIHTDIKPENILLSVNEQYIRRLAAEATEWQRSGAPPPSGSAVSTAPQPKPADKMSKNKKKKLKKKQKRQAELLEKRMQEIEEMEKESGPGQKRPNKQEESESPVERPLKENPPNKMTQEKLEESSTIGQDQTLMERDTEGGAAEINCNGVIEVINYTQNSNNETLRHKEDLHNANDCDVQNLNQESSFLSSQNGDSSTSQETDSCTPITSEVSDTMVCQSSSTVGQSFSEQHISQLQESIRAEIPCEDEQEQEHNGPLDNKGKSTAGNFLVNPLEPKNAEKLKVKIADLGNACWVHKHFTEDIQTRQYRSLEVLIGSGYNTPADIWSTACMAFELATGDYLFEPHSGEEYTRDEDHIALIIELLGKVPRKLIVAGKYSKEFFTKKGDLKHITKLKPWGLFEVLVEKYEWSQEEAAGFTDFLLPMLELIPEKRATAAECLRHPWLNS
UniProt Q5S007: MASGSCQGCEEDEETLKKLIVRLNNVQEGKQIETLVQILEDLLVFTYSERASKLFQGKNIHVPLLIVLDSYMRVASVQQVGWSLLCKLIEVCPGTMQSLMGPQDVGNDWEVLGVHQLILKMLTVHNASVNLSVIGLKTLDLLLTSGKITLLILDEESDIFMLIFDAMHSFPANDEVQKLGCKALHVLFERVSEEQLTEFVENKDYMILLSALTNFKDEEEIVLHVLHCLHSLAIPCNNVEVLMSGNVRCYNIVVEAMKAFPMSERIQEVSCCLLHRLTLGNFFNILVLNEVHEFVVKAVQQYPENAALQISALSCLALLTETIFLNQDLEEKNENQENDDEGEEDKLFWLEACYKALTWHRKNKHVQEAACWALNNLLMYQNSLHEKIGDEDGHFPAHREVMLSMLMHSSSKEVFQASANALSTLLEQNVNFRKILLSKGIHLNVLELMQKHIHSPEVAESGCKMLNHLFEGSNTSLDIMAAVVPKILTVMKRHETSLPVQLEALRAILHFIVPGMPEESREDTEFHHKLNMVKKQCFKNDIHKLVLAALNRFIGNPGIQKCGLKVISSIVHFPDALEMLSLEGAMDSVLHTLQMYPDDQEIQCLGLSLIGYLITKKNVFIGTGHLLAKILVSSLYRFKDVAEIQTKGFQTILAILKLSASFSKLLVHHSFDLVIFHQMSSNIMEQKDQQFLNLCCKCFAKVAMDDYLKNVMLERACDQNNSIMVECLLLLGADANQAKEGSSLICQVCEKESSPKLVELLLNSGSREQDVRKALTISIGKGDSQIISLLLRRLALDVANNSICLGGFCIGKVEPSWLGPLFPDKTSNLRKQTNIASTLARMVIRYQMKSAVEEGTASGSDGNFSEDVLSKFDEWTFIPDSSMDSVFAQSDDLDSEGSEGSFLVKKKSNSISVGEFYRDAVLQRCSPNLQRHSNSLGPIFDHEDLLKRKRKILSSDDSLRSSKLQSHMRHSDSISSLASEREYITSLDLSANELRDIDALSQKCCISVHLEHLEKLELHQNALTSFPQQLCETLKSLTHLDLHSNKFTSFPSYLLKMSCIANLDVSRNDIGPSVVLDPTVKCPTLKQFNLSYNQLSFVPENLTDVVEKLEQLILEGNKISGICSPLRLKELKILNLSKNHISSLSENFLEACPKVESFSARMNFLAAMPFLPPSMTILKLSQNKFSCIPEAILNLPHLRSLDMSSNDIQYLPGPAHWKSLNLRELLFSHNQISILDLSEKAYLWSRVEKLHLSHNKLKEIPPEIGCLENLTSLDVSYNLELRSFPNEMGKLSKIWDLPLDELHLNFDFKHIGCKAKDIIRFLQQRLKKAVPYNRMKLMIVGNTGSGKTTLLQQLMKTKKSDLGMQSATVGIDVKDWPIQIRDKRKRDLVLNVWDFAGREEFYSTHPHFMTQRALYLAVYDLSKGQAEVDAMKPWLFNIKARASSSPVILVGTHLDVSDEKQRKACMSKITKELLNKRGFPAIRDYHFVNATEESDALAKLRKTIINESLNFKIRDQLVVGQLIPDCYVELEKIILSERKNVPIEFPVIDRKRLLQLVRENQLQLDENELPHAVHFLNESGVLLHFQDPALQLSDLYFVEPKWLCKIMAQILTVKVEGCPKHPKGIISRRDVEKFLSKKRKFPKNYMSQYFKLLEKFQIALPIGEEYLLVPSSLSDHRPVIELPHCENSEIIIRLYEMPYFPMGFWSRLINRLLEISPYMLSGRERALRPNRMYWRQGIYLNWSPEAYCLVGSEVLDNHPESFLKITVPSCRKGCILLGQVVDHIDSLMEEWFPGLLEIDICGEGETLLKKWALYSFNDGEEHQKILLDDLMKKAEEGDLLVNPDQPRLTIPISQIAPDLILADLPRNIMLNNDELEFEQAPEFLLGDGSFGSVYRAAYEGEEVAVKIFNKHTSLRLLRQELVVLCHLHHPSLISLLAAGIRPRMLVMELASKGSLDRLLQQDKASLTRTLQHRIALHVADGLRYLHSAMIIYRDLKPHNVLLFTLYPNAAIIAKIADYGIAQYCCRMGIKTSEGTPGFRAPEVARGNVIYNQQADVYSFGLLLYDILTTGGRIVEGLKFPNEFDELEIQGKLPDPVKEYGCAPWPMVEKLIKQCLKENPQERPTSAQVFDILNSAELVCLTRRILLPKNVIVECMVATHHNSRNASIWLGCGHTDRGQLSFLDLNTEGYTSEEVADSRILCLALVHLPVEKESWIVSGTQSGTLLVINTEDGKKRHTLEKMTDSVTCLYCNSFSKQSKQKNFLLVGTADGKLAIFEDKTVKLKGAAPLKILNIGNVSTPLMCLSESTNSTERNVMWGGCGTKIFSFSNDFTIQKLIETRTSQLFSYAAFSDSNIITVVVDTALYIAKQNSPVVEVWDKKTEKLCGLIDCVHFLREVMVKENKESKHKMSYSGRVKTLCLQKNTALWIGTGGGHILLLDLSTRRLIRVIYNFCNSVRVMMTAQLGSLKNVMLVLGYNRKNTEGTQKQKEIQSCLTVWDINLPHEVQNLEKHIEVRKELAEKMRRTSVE
UniProt Q6ZWH5: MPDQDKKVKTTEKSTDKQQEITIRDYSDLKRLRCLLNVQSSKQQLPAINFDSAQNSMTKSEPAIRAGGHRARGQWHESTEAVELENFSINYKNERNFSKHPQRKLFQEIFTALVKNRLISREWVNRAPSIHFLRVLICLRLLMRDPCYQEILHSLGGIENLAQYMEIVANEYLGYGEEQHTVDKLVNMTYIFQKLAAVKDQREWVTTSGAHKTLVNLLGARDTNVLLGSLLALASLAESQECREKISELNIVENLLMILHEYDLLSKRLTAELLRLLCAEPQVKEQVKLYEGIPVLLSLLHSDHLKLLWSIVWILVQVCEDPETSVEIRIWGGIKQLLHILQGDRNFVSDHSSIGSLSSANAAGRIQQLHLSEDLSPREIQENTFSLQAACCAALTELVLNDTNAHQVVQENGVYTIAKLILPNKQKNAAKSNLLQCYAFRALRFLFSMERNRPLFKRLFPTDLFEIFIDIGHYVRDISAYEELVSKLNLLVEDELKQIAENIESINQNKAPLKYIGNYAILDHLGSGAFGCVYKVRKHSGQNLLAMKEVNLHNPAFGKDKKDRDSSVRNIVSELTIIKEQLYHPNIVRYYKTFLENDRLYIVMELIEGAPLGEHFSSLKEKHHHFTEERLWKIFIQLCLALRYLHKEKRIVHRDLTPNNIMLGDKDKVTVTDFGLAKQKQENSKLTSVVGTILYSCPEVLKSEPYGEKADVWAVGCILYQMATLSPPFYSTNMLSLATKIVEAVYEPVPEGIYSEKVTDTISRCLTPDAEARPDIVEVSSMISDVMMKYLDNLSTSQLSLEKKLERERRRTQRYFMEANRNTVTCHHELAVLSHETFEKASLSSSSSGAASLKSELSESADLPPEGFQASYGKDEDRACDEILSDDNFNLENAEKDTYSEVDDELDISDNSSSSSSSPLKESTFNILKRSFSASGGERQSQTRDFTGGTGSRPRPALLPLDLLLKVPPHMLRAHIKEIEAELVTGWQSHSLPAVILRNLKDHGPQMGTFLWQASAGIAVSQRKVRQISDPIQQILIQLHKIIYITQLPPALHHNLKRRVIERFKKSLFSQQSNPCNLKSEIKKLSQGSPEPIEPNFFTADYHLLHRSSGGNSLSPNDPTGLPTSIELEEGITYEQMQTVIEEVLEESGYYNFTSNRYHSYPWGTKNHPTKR
UniProt P42336, whole entry E545A: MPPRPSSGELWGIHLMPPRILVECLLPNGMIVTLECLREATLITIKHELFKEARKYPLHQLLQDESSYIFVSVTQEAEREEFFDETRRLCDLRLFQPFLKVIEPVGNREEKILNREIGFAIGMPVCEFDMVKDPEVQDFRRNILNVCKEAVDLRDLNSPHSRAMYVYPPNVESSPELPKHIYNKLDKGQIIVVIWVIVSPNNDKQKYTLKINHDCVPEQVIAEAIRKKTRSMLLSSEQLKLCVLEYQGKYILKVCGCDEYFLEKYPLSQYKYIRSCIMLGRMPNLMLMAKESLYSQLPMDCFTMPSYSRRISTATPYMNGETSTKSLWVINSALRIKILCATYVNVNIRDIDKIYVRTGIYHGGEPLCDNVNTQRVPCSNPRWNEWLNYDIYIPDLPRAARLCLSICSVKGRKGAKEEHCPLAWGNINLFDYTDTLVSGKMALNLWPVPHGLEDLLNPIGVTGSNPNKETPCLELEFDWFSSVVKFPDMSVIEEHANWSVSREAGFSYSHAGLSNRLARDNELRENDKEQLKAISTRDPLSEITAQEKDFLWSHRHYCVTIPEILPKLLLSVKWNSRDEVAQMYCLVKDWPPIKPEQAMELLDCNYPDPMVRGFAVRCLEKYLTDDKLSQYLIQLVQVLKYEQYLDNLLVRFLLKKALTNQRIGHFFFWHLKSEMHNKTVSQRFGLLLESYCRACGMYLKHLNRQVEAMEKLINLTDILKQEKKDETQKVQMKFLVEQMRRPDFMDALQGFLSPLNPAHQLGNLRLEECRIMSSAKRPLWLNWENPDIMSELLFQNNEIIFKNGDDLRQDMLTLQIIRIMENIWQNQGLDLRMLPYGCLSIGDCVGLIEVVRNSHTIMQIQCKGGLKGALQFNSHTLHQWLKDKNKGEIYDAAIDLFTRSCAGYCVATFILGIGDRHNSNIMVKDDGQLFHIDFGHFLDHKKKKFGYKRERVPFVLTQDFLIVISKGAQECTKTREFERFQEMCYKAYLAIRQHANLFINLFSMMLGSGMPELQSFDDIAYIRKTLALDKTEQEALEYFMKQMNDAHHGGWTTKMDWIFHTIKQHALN
UniProt P42336, whole entry E545K: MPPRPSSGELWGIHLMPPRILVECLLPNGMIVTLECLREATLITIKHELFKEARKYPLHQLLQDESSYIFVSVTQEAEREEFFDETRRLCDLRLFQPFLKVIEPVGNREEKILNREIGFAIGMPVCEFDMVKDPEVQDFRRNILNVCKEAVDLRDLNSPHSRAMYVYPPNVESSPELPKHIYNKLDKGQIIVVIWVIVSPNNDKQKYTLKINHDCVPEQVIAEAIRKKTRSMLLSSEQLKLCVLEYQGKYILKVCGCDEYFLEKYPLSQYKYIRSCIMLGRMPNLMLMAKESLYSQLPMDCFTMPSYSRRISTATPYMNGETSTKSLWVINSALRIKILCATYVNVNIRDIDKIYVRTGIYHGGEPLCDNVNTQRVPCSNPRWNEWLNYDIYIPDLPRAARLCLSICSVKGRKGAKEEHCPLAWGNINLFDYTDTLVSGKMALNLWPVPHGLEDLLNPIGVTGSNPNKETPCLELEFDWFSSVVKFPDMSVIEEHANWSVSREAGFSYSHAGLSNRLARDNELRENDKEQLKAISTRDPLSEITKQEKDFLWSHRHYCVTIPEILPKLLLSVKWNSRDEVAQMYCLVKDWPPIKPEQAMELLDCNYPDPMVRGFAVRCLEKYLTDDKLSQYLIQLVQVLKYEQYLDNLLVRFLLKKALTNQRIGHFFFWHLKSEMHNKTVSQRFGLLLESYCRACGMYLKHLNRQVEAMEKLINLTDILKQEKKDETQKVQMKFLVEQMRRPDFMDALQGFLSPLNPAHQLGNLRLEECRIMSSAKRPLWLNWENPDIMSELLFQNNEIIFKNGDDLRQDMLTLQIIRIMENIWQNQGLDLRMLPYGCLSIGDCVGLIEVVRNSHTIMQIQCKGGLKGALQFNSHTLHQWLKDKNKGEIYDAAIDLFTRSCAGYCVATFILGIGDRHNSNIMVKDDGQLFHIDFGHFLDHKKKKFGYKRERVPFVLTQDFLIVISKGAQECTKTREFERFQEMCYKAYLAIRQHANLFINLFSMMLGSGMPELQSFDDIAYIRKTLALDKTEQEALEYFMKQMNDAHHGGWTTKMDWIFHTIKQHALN

COc1cc2c(Nc3ccc(Cl)c(OC)n3)c(C#N)cnc2cc1OCCON1CCN(C)CC1 [16a, 4-((5-Chloro-6-methoxypyridin-2-yl)amino)-6-methoxy-7-(2-((4-methylpiperazin-1-yl)oxy)ethoxy)quinoline-3-carbonitrile]
remaining activity at 1 µM [1]: 100% | remaining activity at 1 µM [2]: 7% | remaining activity at 1 µM [3]: 3% | remaining activity at 1 µM [4]: 0.4% | remaining activity at 1 µM [5]: 56% | remaining activity at 1 µM [6]: 96% | remaining activity at 1 µM [7]: 100% | Number of Hits S(1) [8]: 30 | Number of Hits S(10) [8]: 79 | Number of Hits S(35) [8]: 131 | remaining activity at 1 µM [9]: 11% | remaining activity at 1 µM [10]: 72% | remaining activity at 1 µM [11]: 1.8% | remaining activity at 1 µM [12]: 100% | remaining activity at 1 µM [13]: 58% | remaining activity at 1 µM [14]: 59% | remaining activity at 1 µM [15]: 100% | remaining activity at 1 µM [16]: 90% | remaining activity at 1 µM [17]: 96% | Percent Control [18]: 32 | remaining activity at 1 µM [19]: 21% | remaining activity at 1 µM [20]: 79% | remaining activity at 1 µM [21]: 100% | remaining activity at 1 µM [22]: 31% | remaining activity at 1 µM [23]: 100% | remaining activity at 1 µM [24]: 89% | remaining activity at 1 µM [25]: 4% | remaining activity at 1 µM [26]: 27% | remaining activity at 1 µM [27]: 100% | remaining activity at 1 µM [28]: 91% | remaining activity at 1 µM [29]: 0% | remaining activity at 1 µM [30]: 0.7% | remaining activity at 1 µM [31]: 79% | remaining activity at 1 µM [32]: 76% | remaining activity at 1 µM [33]: 42% | remaining activity at 1 µM [34]: 74% | remaining activity at 1 µM [35]: 50% | remaining activity at 1 µM [36]: 52% | remaining activity at 1 µM [37]: 37% | remaining activity at 1 µM [38]: 79% | remaining activity at 1 µM [39]: 89% | remaining activity at 1 µM [40]: 100% | remaining activity at 1 µM [41]: 48% | remaining activity at 1 µM [42]: 50%
